Assays:
[1] = mouse, iv, 15 mg/kg
[2] = system: NEDD8 transfer to cullin substrates (reconstituted NEDD8 cascade); conditions: read-out: IC50, transfer of FAM-labeled NEDD8 to cullin substrates; fully reconstituted NEDD8 cascade (pulse-chase)
HCC95 cells = conditions: 10 μM, colonies counted at 10 days
mice = conditions: mouse, in vivo
[3] = mouse, microsomes

SMILES	oxidative/microsomal metabolic stability (in words) [3]	inhibition of colony formation (HCC95 cells)	also measured
CCN1C(=O)[C@@H](NC(=O)c2cccc(C)c2)[C@@H](c2ccc(F)cc2)c2c(C)nn(-c3ccccc3)c21 (relative stereo) [Compound 2, N-(rel-(4S,5S)-7-ethyl-4-(4-fluorophenyl)-3-methyl-6-oxo-1-phenyl-4,5,6,7-tetrahydro-1H-pyrazolo[3,4-b]pyridin-5-yl)-3-methylbenzamide]	–	–	murine plasma CLIV [1]: 86.5 mL/min/kg
CCN1C(=O)[C@@H](NC(=O)c2cccc(C(F)(F)F)c2)[C@@H](c2ccc(F)cc2)c2c(CN)nn(-c3ccccc3)c21 (relative stereo) [Compound 40, N-(rel-(4S,5S)-3-(aminomethyl)-7-ethyl-4-(4-fluorophenyl)-6-oxo-1-phenyl-4,5,6,7-tetrahydro-1H-pyrazolo[3,4-b]pyridin-5-yl)-3-(trifluoromethyl)benzamide]	–	inhibited colony formation completely	IC50 [2]: 110 nM; tolerability / adverse reactions (mice): well tolerated
Cc1nn(-c2ccccc2)c2c1[C@H](c1ccc(F)cc1)[C@H](NC(=O)c1cccc(C(F)(F)F)c1)C(=O)N2CCO [Compound 19]	retains metabolic stability	–	–
CCCCN1CCC(N(Cc2ccccc2)C(=O)Nc2ccc(Cl)c(Cl)c2)CC1 [NAcM-OPT, reference compound]	–	equally efficacious	–

Continued, in another order:

oxidative/microsomal metabolic stability (in words) [3]	SMILES	inhibition of colony formation (HCC95 cells)	also measured
reduction in metabolic stability	CCCn1nc(C)c2c1N(CC)C(=O)[C@@H](NC(=O)c1cccc(C(F)(F)F)c1)[C@H]2c1ccc(F)cc1 [Compound 22]	–	–
reduction in metabolic stability	CCN1C(=O)[C@@H](NC(=O)c2cccc(C(F)(F)F)c2)[C@@H](c2ccc(F)cc2)c2c(C)nn(C3CC3)c21 [Compound 24]	–	–

Source: publication PMC8159160 (Journal of medicinal chemistry, 2021)
